## AlphaSeq binding of Ab-14 light chain variants to a spike HR2 peptide

All variants were tested on one target, the spike HR2 peptide PDVDLGDISGINAS (SARS-CoV-2).

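In library AAYL50, one, two or three CDR residues were substituted; doubles and triples were drawn at random. Affinity was read by AlphaSeq, a pooled yeast mating assay with surface-displayed partners. Binding brings cells together so that they mate, and sequencing counts the barcode pairs among the diploids. A regression on co-assayed BCL2-family reference pairs converts the normalised counts of each replicate to an apparent Kd. There are three technical replicates.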

Ab-14 is the parent antibody, in scFv form: VH, then a 15-residue (Gly4Ser)3 linker, then VL. The heavy chain is unchanged in all variants.
VH: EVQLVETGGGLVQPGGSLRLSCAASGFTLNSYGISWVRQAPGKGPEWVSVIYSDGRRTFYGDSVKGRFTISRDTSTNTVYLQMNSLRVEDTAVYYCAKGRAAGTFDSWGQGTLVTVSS
VL: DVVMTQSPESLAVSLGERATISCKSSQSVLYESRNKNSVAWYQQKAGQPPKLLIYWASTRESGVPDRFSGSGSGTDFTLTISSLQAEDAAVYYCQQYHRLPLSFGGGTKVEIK

Changes read parent residue, position, new residue, counted from the first residue of the VL shown. The read-out is the apparent dissociation constant on a log10 scale (nM): the lower, the stronger. "nd" means that the variant was in the library but no mating with the target was seen in that replicate; the authors take this as a sign of poor binding, and no number exists. Three control strains display no target. For library AAYL50, 18% of the pairings with them gave a signal, with a median of 4.19 and one signal in twenty below 2.99, so weak values seen in few replicates may be background. For each scFv, signals with the empty controls are counted beside the result, with their mean in brackets.

| changes | log10 Kd, replicates | control signals |
|---|---|---|
| A57Q+R99H+S103L | 3.19 4.24 nd | 0 of 9 |
| S26M+Y31Q+N37Y | 0.68 0.99 0.96 | 2 of 9 (5.00) |
| N37H+V39T+Y97V | nd nd nd | 1 of 9 (2.58) |
| S26G+S38W+W56S | 2.10 2.11 2.06 | 1 of 9 (4.44) |
| Q96P | nd 2.94 nd | 0 of 9 |
| S28L+Y31D+E61W | 1.31 1.43 1.29 | 5 of 9 (3.98) |
| N37W+V39N | nd nd nd | 0 of 9 |
| Q27I+S38I+S62E | nd nd nd | 1 of 9 (2.29) |
| S58G+L100I+S103D | 1.42 1.27 1.19 | 0 of 9 |
| K36T+P101C | 2.49 1.80 1.79 | 3 of 9 (4.18) |
| S25T+E61W+L100A | nd nd 3.37 | 0 of 9 |
| S26P+E32W+S62P | 0.79 0.93 1.09 | 5 of 9 (4.55) |
| K24C+L30W | 0.56 0.73 0.72 | 1 of 9 (4.89) |
| R34G+N37R+L102M | nd nd nd | 2 of 9 (4.62) |
| S26N+V39A+Q95C | nd nd nd | 1 of 9 (3.30) |
| Y31T+Y97A+S103I | 0.84 0.99 0.97 | 2 of 9 (4.51) |
| Q95N+L102M+S103K | nd nd nd | 0 of 9 |
| Q27T+K36E+S38P | 0.76 0.42 1.09 | 0 of 9 |
| K24V+V39M+Q96R | nd 3.53 3.16 | 0 of 9 |
| L30M+N35W+N37V | nd 3.72 nd | 6 of 9 (4.13) |
| S33V+A40K+E61H | nd nd nd | 0 of 9 |
| L30V+S33G+S103P | nd nd nd | 1 of 9 (4.81) |
| E32T+Q96K+Y97A | nd nd nd | 0 of 9 |
| S28L+Y31P+S62Q | 0.44 0.66 0.53 | 2 of 9 (4.08) |
| N35R+Q95I+L100Q | nd nd nd | 0 of 9 |
| Q27I+V39Q+R99T | nd nd nd | 0 of 9 |
| T59A+E61P+Q96W | 2.19 2.93 2.85 | 2 of 9 (3.39) |
| N35H+R60I+R99S | 4.72 4.70 nd | 4 of 9 (4.29) |
| E32R+R34C+N35S | 2.66 2.47 3.24 | 1 of 9 (5.39) |
| E32T+S33V+K36N | 1.87 nd 2.56 | 0 of 9 |
| Y31E+H98G+L100R | nd nd 2.62 | 0 of 9 |
| Q27I+N37V+T59R | nd nd nd | 1 of 9 (2.31) |
| R34H+A40R+S58N | nd nd 4.18 | 0 of 9 |
| R34T+A40P+Y97D | nd nd nd | 0 of 9 |
| K36E | 0.08 0.43 0.28 | 1 of 9 (4.27) |
| S28E+S33R+W56H | 0.88 0.83 0.77 | 3 of 9 (4.03) |

Picked from the list: the 3 lowest averages where every replicate gave a value.

{"changes": "K36E", "log10 Kd, replicates": "0.08 0.43 0.28", "control signals": "1 of 9 (4.27)"}
{"changes": "S28L+Y31P+S62Q", "log10 Kd, replicates": "0.44 0.66 0.53", "control signals": "2 of 9 (4.08)"}
{"changes": "K24C+L30W", "log10 Kd, replicates": "0.56 0.73 0.72", "control signals": "1 of 9 (4.89)"}

In this assay the parent's reference entry averaged 0.65; its copy inside this library read 1.68.

Source: Engelhart et al. 2022 (doi:10.1038/s41597-022-01779-4), MIT Lincoln Laboratory and A-Alpha Bio; data file from the FLAb repository.